## scFv variants of Ab-95 (light chain) against a SARS-CoV-2 spike peptide

Reference: Engelhart et al. 2022, doi:10.1038/s41597-022-01779-4. File: FLAb, binding data.

Binding partner: SARS-CoV-2 spike HR2 peptide, sequence PDVDLGDISGINAS.

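The starting antibody came from a phage panning campaign against this peptide. In library AAYL52, one, two or three CDR residues were substituted; doubles and triples were drawn at random. In AlphaSeq, yeast of one mating type display the scFv and yeast of the other type display the target. Mating (16 h, 30 °C) was followed by selection of diploids and sequencing of their barcodes. Each replicate has its own calibration line, from reference interactions of the BCL2 family. There are three technical replicates.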

Parent: Ab-95, a human scFv built as VH, a (GGGGS)3 linker, VL. Only the CDRs of the light chain vary.
VH: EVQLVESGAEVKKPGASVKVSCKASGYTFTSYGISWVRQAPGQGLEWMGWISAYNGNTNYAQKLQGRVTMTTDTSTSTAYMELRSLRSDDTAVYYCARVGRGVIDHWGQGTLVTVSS
VL: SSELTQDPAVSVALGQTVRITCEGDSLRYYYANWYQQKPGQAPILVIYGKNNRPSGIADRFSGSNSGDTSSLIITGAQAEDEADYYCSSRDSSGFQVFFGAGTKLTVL

The parent's light chain CDRs are EGDSLRYYYAN, GKNNRPS, SSRDSSGFQVF; each variant's own CDRs replace them letter for letter.
Kd is apparent (estimated from mating counts) and averaged on the log scale over replicates with a signal. Smaller is tighter.
A pair that was not seen in any replicate is written "no signal"; this usually means weak binding, but a binder can also be missed.
For reference, the parent read 200 nM as the reference entry and 180 nM as a member of this library.
As a blank, each scFv also met three strains without target: over library AAYL52, 28% of these pairings were detected, typically at 8.2 µM and seldom below 800 nM.

{"CDR-L1": "EGPSLRYYYAN", "CDR-L2": "GKNNGPS", "CDR-L3": "SSRDSEGFQVF", "Kd (apparent)": "990 nM", "detected": "3/3"}
{"CDR-L1": "EGDSLRYLYAN", "CDR-L2": "GKNNRPS", "CDR-L3": "SSRDSSGMCVF", "Kd (apparent)": "670 nM", "detected": "3/3"}
{"CDR-L1": "EGDSLEYYYAN", "CDR-L2": "GKNNRGS", "CDR-L3": "SMRDSSGFQVF", "Kd (apparent)": "1.4 µM", "detected": "2/3"}
{"CDR-L1": "EDDSLRRYYAN", "CDR-L2": "GKNNKPS", "CDR-L3": "SSRDSSGFQVF", "Kd (apparent)": "670 nM", "detected": "3/3"}
{"CDR-L1": "EGDSLRYYYAN", "CDR-L2": "GKTNRPS", "CDR-L3": "SERDSSGPQVF", "Kd (apparent)": "2.1 µM", "detected": "3/3"}
{"CDR-L1": "EGKSLRYYYSN", "CDR-L2": "GKNNRPS", "CDR-L3": "SSRDSSGFYVF", "Kd (apparent)": "3.2 µM", "detected": "3/3"}
{"CDR-L1": "EGDSLKYWYAN", "CDR-L2": "GKNNRPS", "CDR-L3": "SSRDSSGFQVF", "Kd (apparent)": "140 nM", "detected": "3/3"}
{"CDR-L1": "EGDSLRYYKAN", "CDR-L2": "GKNNRPS", "CDR-L3": "WFRDSSGFQVF", "Kd (apparent)": "21 µM", "detected": "1/3"}
{"CDR-L1": "EGDSLRYYEAN", "CDR-L2": "GKNNRPS", "CDR-L3": "SSRDDSLFQVF", "Kd (apparent)": "290 nM", "detected": "3/3"}
{"CDR-L1": "EGDSLTYYYAK", "CDR-L2": "GKNNRPS", "CDR-L3": "SSRDCSGFQVF", "Kd (apparent)": "25 µM", "detected": "1/3"}
{"CDR-L1": "EGDSLRYYYNN", "CDR-L2": "GKNYRPS", "CDR-L3": "SSRDSMGFQVF", "Kd (apparent)": "no signal", "detected": "0/3"}
{"CDR-L1": "EGDSLWYYVAN", "CDR-L2": "GKNNRPS", "CDR-L3": "SSRDSMGFQVF", "Kd (apparent)": "11 µM", "detected": "3/3"}
{"CDR-L1": "EGDSLYYHYAN", "CDR-L2": "GKNNRPS", "CDR-L3": "SSRDSSWFQVF", "Kd (apparent)": "3.3 µM", "detected": "3/3"}
{"CDR-L1": "EGDSLRYYYGS", "CDR-L2": "GKNNRPS", "CDR-L3": "QSRDSSGFQVF", "Kd (apparent)": "9.7 µM", "detected": "3/3"}
{"CDR-L1": "EGDSLRYYYAN", "CDR-L2": "GKNNRPS", "CDR-L3": "KSRASSGFQVF", "Kd (apparent)": "590 µM", "detected": "1/3"}
{"CDR-L1": "EGDSERYYYAN", "CDR-L2": "GKNNRPS", "CDR-L3": "SMRDSSLFQVF", "Kd (apparent)": "11 µM", "detected": "1/3"}
{"CDR-L1": "SGDSRRYYYAN", "CDR-L2": "GKNNRPS", "CDR-L3": "SSRDSSGFIVF", "Kd (apparent)": "6.4 µM", "detected": "3/3"}
{"CDR-L1": "ETDSPRYYYAN", "CDR-L2": "GKNNRPI", "CDR-L3": "SSRDSSGFQVF", "Kd (apparent)": "no signal", "detected": "0/3"}
{"CDR-L1": "EGDSLRYYYAN", "CDR-L2": "GKNNRPS", "CDR-L3": "SSRESSGRAVF", "Kd (apparent)": "920 nM", "detected": "3/3"}
{"CDR-L1": "EGDSLRYYFAN", "CDR-L2": "GKGNRPS", "CDR-L3": "SSRDSSGFQEF", "Kd (apparent)": "340 nM", "detected": "3/3"}
{"CDR-L1": "EGDSLRQYYAN", "CDR-L2": "GKNNRPA", "CDR-L3": "SSRDSSGFNVF", "Kd (apparent)": "180 nM", "detected": "3/3"}
{"CDR-L1": "EGDSLRYYYAN", "CDR-L2": "GSNNRPS", "CDR-L3": "SSRDLSGFQVI", "Kd (apparent)": "220 nM", "detected": "1/3"}
{"CDR-L1": "MGDSLRYYYAN", "CDR-L2": "GKNNRPS", "CDR-L3": "SSRDSSGDQVA", "Kd (apparent)": "1.3 µM", "detected": "1/3"}
{"CDR-L1": "EGDSLRYYTAN", "CDR-L2": "GKNNRPT", "CDR-L3": "SSRDSSGMQVF", "Kd (apparent)": "140 nM", "detected": "3/3"}
{"CDR-L1": "EGDSLRYYRAN", "CDR-L2": "GKNNRES", "CDR-L3": "SSRDSSGFQVG", "Kd (apparent)": "400 nM", "detected": "3/3"}
{"CDR-L1": "EGDSLRYYYYN", "CDR-L2": "GWNNRPS", "CDR-L3": "SSRDSSGFQWF", "Kd (apparent)": "8.3 µM", "detected": "2/3"}
{"CDR-L1": "EGDSLRFYYAN", "CDR-L2": "GHNYRPS", "CDR-L3": "SSRDSSGFQVF", "Kd (apparent)": "2.7 µM", "detected": "3/3"}
{"CDR-L1": "EGDSLRYYYAN", "CDR-L2": "EENNRPS", "CDR-L3": "SGRDSSGFQVF", "Kd (apparent)": "530 nM", "detected": "3/3"}
{"CDR-L1": "EADSLLYYYAN", "CDR-L2": "GKNNRPS", "CDR-L3": "SLRDSSGFQVF", "Kd (apparent)": "35 µM", "detected": "3/3"}
{"CDR-L1": "QPDSLHYYYAN", "CDR-L2": "GKNNRPS", "CDR-L3": "SSRDSSGFQVF", "Kd (apparent)": "64 µM", "detected": "3/3"}
{"CDR-L1": "EGDSLRYYYAN", "CDR-L2": "GKNNRPA", "CDR-L3": "SDRDSSSFQVF", "Kd (apparent)": "360 nM", "detected": "3/3"}
{"CDR-L1": "EGLILRYYYAN", "CDR-L2": "MKNNRPS", "CDR-L3": "SSRDSSGFQVF", "Kd (apparent)": "52 µM", "detected": "1/3"}

The opening 3 entries, copied out:

CDR-L1	CDR-L2	CDR-L3	Kd (apparent)	detected
EGPSLRYYYAN	GKNNGPS	SSRDSEGFQVF	990 nM	3/3
EGDSLRYLYAN	GKNNRPS	SSRDSSGMCVF	670 nM	3/3
EGDSLEYYYAN	GKNNRGS	SMRDSSGFQVF	1.4 µM	2/3